## Membrane permeability of cyclic peptides

PAMPA is the parallel artificial membrane permeability assay, which has no cells and reads passive diffusion. Permeability is given as log10 of P in cm/s; higher (less negative) is more permeable.

{"smiles": "CCCN1CC(=O)N(C)[C@@H](CC(C)C)C(=O)N[C@H](CC(C)C)C(=O)N2CCC[C@H]2C(=O)N[C@@H](CC(C)C)C(=O)N[C@@H](Cc2ccccc2)C(=O)N2CCC[C@@H]2C1=O", "PAMPA (log10 cm/s)": "-6.69"}
{"smiles": "CC(C)C[C@H]1C(=O)N[C@@H](Cc2ccccc2)C(=O)N2CCC[C@@H]2C(=O)N(C)[C@@H](C)C(=O)N(Cc2ccccc2)CC(=O)N[C@@H](Cc2ccccc2)CC(=O)N2CCC[C@@H]2C(=O)N1C", "PAMPA (log10 cm/s)": "-5.69"}
{"smiles": "CC(C)C[C@@H]1NC(=O)[C@@H](CC(C)C)N(C)C(=O)[C@@H](C)NC(=O)[C@H]2CCCN2C(=O)[C@H](Cc2ccccc2)NC(=O)[C@H](CC(C)C)N(C)C(=O)[C@H]2CCCN2C1=O", "PAMPA (log10 cm/s)": "-4.88"}
{"smiles": "CC(C)C[C@@H]1NC(=O)[C@@H](CC(C)C)NC(=O)[C@@H](C)NC(=O)[C@H](Cc2ccccc2)NC(=O)[C@H](CC(C)C)N(C)C(=O)[C@@H]2CCCN2C1=O", "PAMPA (log10 cm/s)": "-6.31"}
{"smiles": "CCCN1CC(=O)N(C)[C@H](CC(C)C)C(=O)N(C)[C@H](CC(C)C)C(=O)N2CCC[C@H]2C(=O)N[C@H](CC(C)C)C(=O)N[C@@H](Cc2ccccc2)C(=O)N2CCC[C@@H]2C1=O", "PAMPA (log10 cm/s)": "-5.81"}
{"smiles": "CCCN1CC(=O)N[C@H](CC(C)C)C(=O)N[C@@H](Cc2ccccc2)CC(=O)N2CCC[C@H]2C(=O)N[C@@H](CC(C)C)C(=O)N[C@@H](Cc2ccccc2)C(=O)N2CCC[C@H]2C1=O", "PAMPA (log10 cm/s)": "-6.22"}
{"smiles": "CC(C)C[C@@H]1C(=O)N[C@H](CC(C)C)C(=O)N2CCC[C@@H]2C(=O)N(Cc2ccccc2)CC(=O)N[C@@H](Cc2ccccc2)C(=O)N[C@@H](C)C(=O)N1C", "PAMPA (log10 cm/s)": "-5.49"}
{"smiles": "CC(C)C[C@@H]1NC(=O)[C@H](C)NC(=O)[C@H]2CCCN2C(=O)[C@H](Cc2ccccc2)NC(=O)[C@@H](CC(C)C)NC(=O)[C@H]2CCCN2C(=O)[C@H](CC(C)C)NC1=O", "PAMPA (log10 cm/s)": "-5.92"}
{"smiles": "CC(C)C[C@@H]1NC(=O)[C@H](C)N(C)C(=O)[C@H](Cc2ccccc2)NC(=O)CN(Cc2ccccc2)C(=O)[C@@H]2CCCN2C(=O)CN(Cc2ccccc2)C1=O", "PAMPA (log10 cm/s)": "-5.48"}
{"smiles": "CC(C)C[C@H]1C(=O)N[C@@H](Cc2ccccc2)C(=O)N2CCC[C@H]2C(=O)N(C)[C@@H](C)C(=O)N(C)[C@@H](CC(C)C)C(=O)N(Cc2ccccc2)CC(=O)N2CCC[C@@H]2C(=O)N1C", "PAMPA (log10 cm/s)": "-5.03"}
{"smiles": "CC(C)C[C@@H]1C(=O)N(C)[C@H](CC(C)C)C(=O)N2CCC[C@@H]2C(=O)N(C)[C@H](CC(C)C)C(=O)N[C@@H](Cc2ccccc2)C(=O)N2CCC[C@@H]2C(=O)N[C@@H](C)C(=O)N1C", "PAMPA (log10 cm/s)": "-6.07"}
{"smiles": "CC(C)C[C@@H]1NC(=O)C[C@H](Cc2ccccc2)NC(=O)[C@H]2CCCN2C(=O)[C@H](Cc2ccccc2)NC(=O)[C@@H](CC(C)C)N(C)C(=O)[C@H]2CCCN2C(=O)[C@@H](CC(C)C)NC1=O", "PAMPA (log10 cm/s)": "-6.24"}
{"smiles": "CC(C)C[C@@H]1C(=O)N[C@@H](Cc2ccccc2)C(=O)N2CCC[C@H]2C(=O)N[C@@H](Cc2ccccc2)CC(=O)N(C)[C@@H](CC(C)C)C(=O)N(C)[C@H](CC(C)C)C(=O)N2CCC[C@@H]2C(=O)N1C", "PAMPA (log10 cm/s)": "-5.62"}
{"smiles": "CC(C)C[C@@H]1C(=O)N2CCC[C@@H]2C(=O)N(C)[C@@H](CC(C)C)C(=O)N[C@@H](Cc2ccccc2)C(=O)N2CCC[C@@H]2C(=O)N[C@@H](Cc2ccccc2)CC(=O)N[C@H](CC(C)C)C(=O)N1C", "PAMPA (log10 cm/s)": "-5.32"}
{"smiles": "CC(C)C[C@@H]1NC(=O)[C@H](CC(C)C)N(C)C(=O)[C@@H](C)NC(=O)[C@H]2CCCN2C(=O)[C@H](Cc2ccccc2)NC(=O)[C@@H](CC(C)C)N(C)C(=O)[C@@H]2CCCN2C1=O", "PAMPA (log10 cm/s)": "-5.38"}
{"smiles": "CC(C)C[C@@H]1NC(=O)[C@@H]2CCCN2C(=O)[C@@H](CC(C)C)N(C)C(=O)[C@@H](CC(C)C)NC(=O)[C@@H](C)NC(=O)[C@H](Cc2ccccc2)NC1=O", "PAMPA (log10 cm/s)": "-5.67"}
{"smiles": "CC(C)C[C@@H]1NC(=O)C[C@H](Cc2ccccc2)NC(=O)[C@H]2CCCN2C(=O)[C@H](Cc2ccccc2)NC(=O)[C@H](CC(C)C)N(C)C(=O)[C@H]2CCCN2C(=O)[C@H](CC(C)C)NC1=O", "PAMPA (log10 cm/s)": "-5.31"}

Excerpt, the final 2 entries:

{"smiles": "CC(C)C[C@@H]1NC(=O)[C@@H]2CCCN2C(=O)[C@@H](CC(C)C)N(C)C(=O)[C@@H](CC(C)C)NC(=O)[C@@H](C)NC(=O)[C@H](Cc2ccccc2)NC1=O", "PAMPA (log10 cm/s)": "-5.67"}
{"smiles": "CC(C)C[C@@H]1NC(=O)C[C@H](Cc2ccccc2)NC(=O)[C@H]2CCCN2C(=O)[C@H](Cc2ccccc2)NC(=O)[C@H](CC(C)C)N(C)C(=O)[C@H]2CCCN2C(=O)[C@H](CC(C)C)NC1=O", "PAMPA (log10 cm/s)": "-5.31"}

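Lipid, pH, incubation time, direction and concentration are not recorded in the data file. The list need not hold all peptides of the study. Entries at the database's floor value (log10 P of -10) are not listed.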

Values of Townsend et al. 2020, doi:10.26434/chemrxiv.13335941.v1, as listed in CycPeptMPDB.